{"source": "patent US6562587", "about": "(ASTRA PHARMA, dated 2003)", "molecular_target": "delta opioid receptor naturally expressed by NG 108-15 cells (UniProt P32300)", "assay": "Table 1, NG 108-15 column (method not described)"}
{"substance": "[D-Ala^2, D-Leu^5]-enkephalin (peptide)", "values": [{"measurement": "PKi", "value": 8.7}]}
